# Experimental water solubility values from OPERA 2.9

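These are experimental values that the OPERA curators gathered from public databases to train and test their QSAR models. A listed value is a point estimate from one report or more. How each value was measured is not recorded, so precision varies. The measured form (salt, isomer or mixture) is not always the one drawn. Some upstream entries may be estimates or bounds without being marked so.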

Water solubility is log10 of mol/L, nominally at 25 °C; higher is more soluble. "n/a" marks a cell with nothing listed here.

| compound | name | water solubility (log10 mol/L) |
|---|---|---|
| Brc1cc(Br)c(Oc2ccc(Br)c(Br)c2)c(Br)c1 | 2,3',4,4',6-Pentabromodiphenyl Ether | -11.8 |
| C=CCN1C[C@H](C(=O)N(CCCN(C)C)C(=O)NCC)C[C@@H]2c3cccc4[nH]cc(c34)C[C@H]21 | Cabergoline | -3.849 |
| Fc1ccccc1C1=NCC(=S)N(CC(F)(F)F)c2ccc(Cl)cc21 | Quazepam | -5.224 |
| CCC(C)OC(N)=O (stereo not drawn) | n/a | -0.3 |
| O=c1oc2ccccc2c(O)c1C(CC(O)c1ccc(-c2ccc(Br)cc2)cc1)c1ccccc1 (stereo not drawn) | Bromadiolone | -4.46 |
| CCOP(=S)(OCC)SCSc1cc(Cl)ccc1Cl | Phenkapton | -6.932 |
| CC(C)CC1(C)C(=O)NC(=O)NC1=O | 5-Methyl-5-(2-methylpropyl)pyrimidine-2,4,6(1H,3H,5H)-trione | -2.042 |
| CC(COc1ccc(Oc2ccccc2)cc1)Oc1ccccn1 (stereo not drawn) | Pyriproxyfen | -5.939 |
| O=C(CC(CP1(=O)Oc2ccccc2-c2ccccc21)C(=O)OCCO)OCCO (stereo not drawn) | n/a | -4.462 |
| CCCCC(Br)C(=O)NC(N)=O (stereo not drawn) | N-(Aminocarbonyl)-2-bromohexanamide | -2.856 |
| CCS(=O)c1c(C#N)nn(-c2c(Cl)cc(C(F)(F)F)cc2Cl)c1N (stereo not drawn) | Ethiprole | -4.635 |
| Cc1nn(-c2cc(NS(C)(=O)=O)c(Cl)cc2Cl)c(=O)n1C(F)F | Sulfentrazone | -2.699 |
| CCOCn1c(-c2ccc(Cl)cc2)c(C#N)c(Br)c1C(F)(F)F | Chlorfenapyr | -6.561 |
| CC1(C)C(C=C(Cl)c2ccc(Cl)cc2)C1C(=O)OC(C#N)c1ccc(F)c(Oc2ccccc2)c1 (stereo not drawn) | Flumethrin | -3.41 |
| NCCC(NC(=O)C(N)CCC/N=C(\N)N[N+](=O)[O-])C(N)=O.O=C(O)C(F)(F)F.O=C(O)C(F)(F)F (stereo partly drawn) | n/a | -1.039 |
| S=P(N1CCOCC1)(N1CCOCC1)N1CCOCC1 | Morpholine, 4,4',4''-phosphinothioyldynetris- (9CI) | -2 |
| CCC1(c2ccccc2)C(=O)N(CC(O)CO)C(=O)N=C1O (stereo not drawn) | n/a | -1.79 |
| ClCc1ccc(CCl)cc1 | alpha,alpha'-Dichloro-p-xylene | -4.478 |
| CN1CCC2=C(C1)C(c1ccccc1)c1ccccc12 (stereo not drawn) | Phenindamine | -3.975 |
| CN1CC[C@]23c4c5ccc(O)c4O[C@H]2C(=O)CC[C@@]3(O)[C@H]1C5 | Oxymorphone | -1.071 |
| CC(C)(C)CC(C)(C)OO | Hydroperoxide, 1,1,3,3-tetramethylbutyl | -1.718 |
| CC(C)(C)OOC(=O)c1ccccc1 | tert-Butyl perbenzoate | -2.231 |
| CCC(=O)c1ccc(N)cc1 | 4'-Aminopropiophenone | -2.63 |
| CN1C2CCC1CC(OC(=O)C(COS(=O)(=O)O)c1ccccc1)C2 (stereo not drawn) | n/a | -1.568 |
| CCCC(C)C1(CC)C(=O)N=C(S)NC1=O (stereo not drawn) | Thiopental | -3.36 |
| O=S(=O)([O-])C(F)(F)C(F)(F)C(F)(F)C(F)(F)C(F)(F)C(F)(F)C(F)(F)C(F)(F)F.[Li+] | Lithium perfluorooctanesulfonate | -2.959 |
| COc1cc2c(cc1OC)[C@@]13CCN4CC5=CCO[C@H]6CC(=O)N2[C@H]1[C@H]6[C@H]5C[C@H]43 | Brucine | -2.09 |
| CCOC(=O)COc1cc(-c2nn(C)c(OC(F)F)c2Cl)c(F)cc1Cl | Pyraflufen-ethyl | -6.699 |
| CC(=O)c1cc(C(C)(C)C)cc2c1CCC2(C)C | Celestolide | -4.871 |
| Nc1ccc(Oc2ccc(N)cc2)cc1 | 4,4'-Oxydianiline | -3.62 |
| CCCC(=NOCC)C1=C(O)CC(CC(C)SCC)CC1=O (stereo not drawn) | Sethoxydim | -2.974 |
| CC(C)(c1ccccc1)c1ccc(O)cc1 | 4-Cumylphenol | -3.47 |
| CCC(C)(C)c1ccc(O)c(C(C)(C)CC)c1 | 2,4-Di-tert-pentylphenol | -4.893 |
| CC(Br)C(C)(Br)C(=O)O (stereo not drawn) | 2,3-Dibromo-2-methylbutanoic acid | -1.394 |
| C#CC1(O)CCC2C3C(C)CC4=CC(=O)CCC4C3CCC21C (stereo not drawn) | 17-Hydroxy-7-methyl-19-norpregn-4-en-20-yn-3-one | -4.64 |
| CCCCCOC(=O)Cc1ccccc1 | Benzeneacetic acid, pentyl ester | -2.594 |
| Oc1cc(Cl)ccc1Oc1ccc(Cl)cc1 | Soneclosan | -4.239 |
| c1ccc2sc(SNC3CCCCC3)nc2c1 | N-Cyclohexyl-2-benzothiazolesulfenamide | -5.917 |
| C=CCN1CC[C@]23CCCC[C@H]2[C@H]1Cc1ccc(O)cc13 | Levallorphan | -4.051 |
| CCCCCOC(=O)c1ccccc1C(=O)OCCCCC | Dipentyl phthalate | -3.486 |
| Cc1cc(C)cc(OP(=O)(Oc2cc(C)cc(C)c2)Oc2cc(C)cc(C)c2)c1 | Tris(3,5-xylenyl)phosphate | -5.66 |
| CN1C(=O)CN=C(c2ccccc2F)c2cc(Cl)ccc21 | Fludiazepam | -4.323 |
| CC(C)(C)C(=O)O[C@H]1CC[C@@]2(C)C(=C[C@H](O)[C@H]3[C@@H]4[C@@H]5C[C@@H]5C(=O)[C@@]4(C)CC[C@@H]32)C1 | n/a | -5.155 |
| CCCCOC(=O)CC(SP(=S)(OCC(CC)CCCC)OCC(CC)CCCC)C(=O)OCCCC (stereo not drawn) | n/a | -8.686 |

7 of these entries, quoted again:

{"smiles": "CC(Br)C(C)(Br)C(=O)O", "stereo": "stereo not drawn", "name": "2,3-Dibromo-2-methylbutanoic acid", "water solubility (log10 mol/L)": "-1.394"}
{"smiles": "O=S(=O)([O-])C(F)(F)C(F)(F)C(F)(F)C(F)(F)C(F)(F)C(F)(F)C(F)(F)C(F)(F)F.[Li+]", "name": "Lithium perfluorooctanesulfonate", "water solubility (log10 mol/L)": "-2.959"}
{"smiles": "O=c1oc2ccccc2c(O)c1C(CC(O)c1ccc(-c2ccc(Br)cc2)cc1)c1ccccc1", "stereo": "stereo not drawn", "name": "Bromadiolone", "water solubility (log10 mol/L)": "-4.46"}
{"smiles": "CCCCCOC(=O)Cc1ccccc1", "name": "Benzeneacetic acid, pentyl ester", "water solubility (log10 mol/L)": "-2.594"}
{"smiles": "CN1CC[C@]23c4c5ccc(O)c4O[C@H]2C(=O)CC[C@@]3(O)[C@H]1C5", "name": "Oxymorphone", "water solubility (log10 mol/L)": "-1.071"}
{"smiles": "COc1cc2c(cc1OC)[C@@]13CCN4CC5=CCO[C@H]6CC(=O)N2[C@H]1[C@H]6[C@H]5C[C@H]43", "name": "Brucine", "water solubility (log10 mol/L)": "-2.09"}
{"smiles": "ClCc1ccc(CCl)cc1", "name": "alpha,alpha'-Dichloro-p-xylene", "water solubility (log10 mol/L)": "-4.478"}

Source: data files of OPERA 2.9 (Mansouri et al.), github.com/kmansouri/OPERA.